These are literature values, as cited in article PMC6787468.

The target in series [1] is T1, mGAT1 (GABA transporter 1, GAT1) (Mus musculus, UniProt P31648). In words: affinity selection MS (specific binding […]) with competitive MS Binding Assay; pKi from earlier in-house MS Binding Assays.
Series [2] concerns the target T1, mGAT1 (GABA transporter 1, GAT1). As to the kind of experiment: affinity selection MS, hit in three of three experiments, with competitive MS Binding Assay; pKi from earlier in-house MS Binding Assays.

Where two headings read alike, the source gives them in different places.

As for `O=C(O)C1CCCN(CC#CCC(c2ccccc2)c2ccccc2)C1` (stereo not drawn), the pKi in series [1] (tested form: HCl) was 7.81 pKi.

For the molecule `O=C(O)C1CCCN(CCOCCc2ccc(/N=N/c3cccc4ccccc34)cc2)C1` (stereo not drawn), in series [1], the pKi is given as 6.50 pKi.

On to `O=C(O)C1CCCN(CCC/C=C/c2ccccc2-c2ccc(Cl)cc2Cl)C1` (stereo not drawn), for which, in series [2], the Ki was 7.15 pKi.

In the case of `Cc1ccsc1C(=CCCN1CCC=C(C(=O)O)C1)c1sccc1C`, in series [1], the pKi was 7.04 pKi.

For `O=C(O)C1=CCCN(CCO/N=C/c2ccccc2-c2ccc(F)cc2Cl)C1`, the Ki in series [2] (tested form: HCl) is listed as 7.83 pKi.

Turning to `Cc1ccccc1-c1ccccc1C#CCCN1CCCC(C(=O)O)C1` (stereo not drawn), the pKi in series [1] is given as 8.13 pKi.
